Reference: ChEMBL document CHEMBL5338731, “Development of Neuropeptide Hemokinin-1 Analogues with Antimicrobial and Wound-Healing Activity” (J Med Chem, 2023)

Columns and labels:
Format in all cases: functional
Pseudomonas aeruginosa [1] = test: Antimicrobial activity against Pseudomonas aeruginosa PAO1 assessed as inhibition of bacterial growth incubated for 18 hrs by serial dilution method
Pseudomonas aeruginosa [2] = test: Antimicrobial activity against Pseudomonas aeruginosa ATCC 27853 assessed as inhibition of bacterial growth incubated for 18 hrs by serial dilution method
Bacillus subtilis = test: Antimicrobial activity against Bacillus subtilis ATCC 23857 assessed as inhibition of bacterial growth incubated for 18 hrs by serial dilution method
Staphylococcus aureus [3] = test: Antimicrobial activity against Staphylococcus aureus ATCC 29213 assessed as inhibition of bacterial growth incubated for 18 hrs by serial dilution method
Staphylococcus aureus [4] = test: Antimicrobial activity against Staphylococcus aureus ATCC 25923 assessed as inhibition of bacterial growth incubated for 18 hrs by serial dilution method
Escherichia coli [5] = test: Antimicrobial activity against Escherichia coli ATCC 25922 assessed as inhibition of bacterial growth incubated for 18 hrs by serial dilution method
Escherichia coli [6] = test: Antimicrobial activity against Escherichia coli ML-35 assessed as inhibition of bacterial growth incubated for 18 hrs by serial dilution method

CC[C@H](C)[C@H](NC(=O)CN)C(=O)NCC(=O)N[C@@H](C)C(=O)N[C@H](C(=O)N[C@@H](CC(C)C)C(=O)N[C@@H](CCCCN)C(=O)N[C@H](C(=O)N[C@@H](CC(C)C)C(=O)N[C@H](C(=O)N[C@H](C(=O)NCC(=O)N[C@@H](CC(C)C)C(=O)N1CCC[C@H]1C(=O)N[C@@H](C)C(=O)N[C@@H](CC(C)C)C(=O)N[C@H](C(=O)N[C@@H](CO)C(=O)N[C@@H](Cc1c[nH]c2ccccc12)C(=O)N[C@H](C(=O)N[C@@H](CCCCN)C(=O)N[C@@H](CCCNC(=N)N)C(=O)N[C@@H](CCCCN)C(=O)N[C@@H](CCCNC(=N)N)C(=O)N[C@@H](CCC(N)=O)C(=O)N[C@@H](CCC(N)=O)C(N)=O)[C@@H](C)CC)[C@@H](C)CC)[C@@H](C)O)[C@@H](C)O)C(C)C)C(C)C [MELITTIN]
MIC (Pseudomonas aeruginosa [1]): 4 µM (≈ 11.4 µg/mL)
MIC (Pseudomonas aeruginosa [2]): 4 µM (≈ 11.4 µg/mL)
MIC (Bacillus subtilis): 4 µM (≈ 11.4 µg/mL)
MIC (Staphylococcus aureus [3]): 4 µM (≈ 11.4 µg/mL)
MIC (Staphylococcus aureus [4]): 4 µM (≈ 11.4 µg/mL)
MIC (Escherichia coli [5]): 2 µM (≈ 5.69 µg/mL)
MIC (Escherichia coli [6]): 2 µM (≈ 5.69 µg/mL)

Converted amounts (≈) assume the structure as drawn.
